This is a selection; strong and weak results do not stand in their true shares. Activity calls are given as the source filed them.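 How the source made its calls: active means viability at or below 50% in the single dose screen; inactive means viability above 50%.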

The experiment in a line: antiproliferative effect on LL 47 fibroblasts – human, LL 47 cells, CellTiter-Glo luminescence, primary screen (AID 719).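 Further: compound exposure lasted 72 h before the ATP readout; 100% = median luminescence of untreated cell-only wells.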 The settings on record: LL 47 human lung fibroblast viability, ATP luminescence; at 10 µM; hits give low values. The gist of the method: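 material = human LL 47 lung fibroblast cells | dosing = compounds added from tenfold dosing solution, 0.1% DMSO final | timing = overnight cell rest, 72 h compound treatment at 37 °C | measured by = CellTiter-Glo luminescence measuring cellular ATP | evaluation = % viability versus median cells-only luminescence | control set = cell-only wells, no compound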
In general terms: ATP-based viability assays read luminescence as a measure of living cells.
In general, viability refers to a read-out of living cells in per cent, often relative to untreated cells. For the molecule `Cc1c2non([O-])c-2c(C)[n+](=O)[n+]1[O-]`, the viability is inactive: 84.8%.

In the case of `Oc1ccccc1CNc1ccccn1`, the viability is inactive: 98.5%.

In the case of `CN1CCCC(OC(=O)C(c2ccccc2)c2ccccc2)C1` (stereo unspecified), the viability is inactive: 90.2%.

Consider `CCOP(=O)(Nc1ccccc1)OCC`, for which the viability is inactive: 98.8%.

As for `CC1CCN(C(=O)Oc2c(Cl)cc(Cl)c3cccnc23)CC1`, the viability is inactive: 92.6%.

For the molecule `O=[N+]([O-])c1cccc2n[nH]nc12`, the viability is inactive: 106%.

In the case of `CCc1nc2c(n1)c1c(non1O)c1c2no[n+]1[O-]`, the viability was active: 12.7%.

Consider `O=P(Nc1nccs1)(c1ccccc1)c1ccccc1`, for which the viability was inactive: 94.2%.

On to `c1nnnn1CCn1cnnn1`, for which the viability is inactive: 105%.

`O=C(OC1CN2CCC1CC2)c1cccc(Cl)c1` (stereo unspecified): the viability is inactive: 107%.

As for `COC(=O)c1cc2c(s1)N=C(c1ccccc1)N(C)P2(=O)N1CCOCC1` (stereo unspecified), the viability was inactive: 99.1%.

Take `O=P1(Nc2nc3ccc(Cl)cc3s2)COc2ccccc2O1` (stereo unspecified): the viability was inactive: 102%.

Turning to `Cc1cccc(OCC(=O)OC2CN3CCC2CC3)c1` (stereo unspecified), the viability is inactive: 103%.

As to `CCOP1(=S)c2c(C)nn(CCC#N)c2N=C(c2ccc(F)cc2)N1C` (stereo unspecified), the viability is inactive: 89.9%.

Take `CCOP1(=S)c2c(C)nn(CCC#N)c2N=C(c2ccccc2F)N1C` (stereo unspecified): the viability was inactive: 89.2%.

Turning to `O=P1(Nc2ncccn2)COc2ccccc2OC1`, the viability is inactive: 98.4%.

For the molecule `Cc1ccc(OCC(=O)OC2CN3CCC2CC3)cc1` (stereo unspecified), the viability was inactive: 96.4%.

With `O=P1(Nc2ccc(Br)cn2)COc2ccccc2OC1`, the viability was inactive: 102%.

With `Cc1nn(-c2ccccc2)c2c1P(=O)(N1CCOCC1)N(C)C(c1ccccc1)=N2` (stereo unspecified), the viability is inactive: 97.4%.

`CC1(CBr)Cn2c(nc3ccccc3c2=O)S1` (stereo unspecified): the viability is inactive: 87.3%.

As for `O=P1(Nc2ccccn2)COc2ccccc2OC1`, the viability is inactive: 97.3%.

As for `CCC(C)N(CC(C)C)C(=S)SC(NC(C)=O)C(Cl)(Cl)Cl` (stereo unspecified), the viability was inactive: 52.1%.

For `COP1(=S)c2c(C)nn(CCC#N)c2N=C(c2ccc(F)cc2)N1C` (stereo unspecified), the viability was inactive: 94.3%.

Consider `O=C(COc1ccccc1)OC1CN2CCC1CC2` (stereo unspecified), for which the viability is inactive: 98.1%.

With `ClCCSc1nnc(-c2cccnc2)o1`, the viability was inactive: 101%.

On to `O=C(OC1CN2CCC1CC2)C12CC3CC(CC(C3)C1)C2` (stereo unspecified), for which the viability is inactive: 93.9%.

For the origin of these results see PubChem BioAssay AID719 (SRMLSC, 2007).
